Several values for one entry are separate records, joined by “and”; a condition that tells them apart may be missing. Equal entries are not always repeated. The entries are a selection whose mix differs from that of the whole data set. Inconclusive results are not listed. Activity calls are given as the source filed them. The call rests on the fitted dose curve; in most records, active means well fitted cell-killing curve with a large enough effect in the repeat runs; inconclusive means weak or mixed curves, or effect the other way; inactive means no such curve, though single readings can be large or run the other way.
Assay: qHTS assay to identify small molecule antagonists of the thyroid receptor (TR) signaling pathway - cell viability counter screen (AID 743064); further: nearly all actives have a fitted effect of over 50% in size
Details: GH3.TRE-Luc viability, CellTiter-Fluor, 24 h; series mostly up to 70.3 µM; activity change, negative = cytotoxic: at the top concentration
Excerpt: National Center for Advancing Translational Sciences [NCATS]
NIH Chemical Genomics Center [NCGC]
U.S. Environmental Protection Agency [EPA]
National Institutes of Environmental Health Sciences [NIEHS]
National Toxicology Program [NTP]
U.S. Food and Drug Administration [FDA]
Thyroid receptor (TR), a nuclear hormone receptor, plays an important role in development, proliferation, differentiation, metabolism, brain function, and cardiovascular system. […] To profile the Tox21 10K compound library in TR signaling, a cell-based GH3-TRE-Luc assay (GH3.TRE-Luc cell line, developed by the laboratory of Dr. Albertinka J. Murk, Wageningen University) was used to measure the inhibition of TR. GH3 (rat pituitary tumor) cells stably expressing a TR activity sensor consisting of two TR response elements and a luciferase reporter gene. The cytotoxicity of the Tox21 compound library against the GH3.TRE-Luc cell line was tested in parallel by measuring the cell viability using CellTiter-Fluor assay (Promega, Madison, WI) in the same wells.
Tox21 Assay Protocol Summary:
GH3.TRE-Luc cells were dispensed at 1500 cells/4 uL/well into 1536-well white solid bottom plates using a Multidrop Combi dispenser (Thermo Fisher Scientific Inc., Waltham, MA). After the assay plates were incubated at 37 C for 4 hours, 23 nL of library compound or DMSO controls was transferred to the assay plates by a pintool station (Kalypsys, San Diego, CA), followed by addition of 1 ul of T3 (1 nM, final concentration in the wells) to stimulate TR transactivation. The assay plates were incubated at 37 C for 23.5 h, and then 1 uL of CellTiter-Fluor reagent (Promega, Madision, WI) of measuring cytotoxicity was added to each well using a Bioraptr Flying Reagent Dispenser (FRD) workstation (Beckman Coulter, Indianapolis, IN, USA). The plates were incubated at 37C and 5% CO2 for additional 30 min, and fluorescence intensity was measured by a ViewLux plate reader (PerkinElmer, Shelton, CT).
On the % scale 0 is the no-effect control and ±100 the full control effect; potency means the concentration at half of the fitted maximal effect.

| SMILES | activity change, negative = cytotoxic | Potency |
| --- | --- | --- |
| CC(C)CCCCCCCOP(OCCCCCCCC(C)C)Oc1ccccc1 | inactive: -1.02% | – |
| O=[p+]1oc2ccccc2c2ccccc21 (centres undefined) | inactive: 0.466% | – |
| O=C1C2CC=CCC2C(=O)N1SC(Cl)(Cl)C(Cl)Cl (centres undefined) | – | active: 1.74 µM and active: 217 nM |
| ClP(Cl)c1ccccc1 | inactive: -0.636% | – |
| CCCCO[P+](=O)OCCCC | – | inactive |
| CCNC(C)Cc1ccc2c(c1)OCO2 (centres undefined) | inactive: -21% [at 95 µM] | – |
| O=C(OC1CN2CCC1CC2)c1ccccc1 (centres undefined) | inactive: 15.7% | – |
| O=[N+]([O-])c1ccc(S(=O)(=O)O)c([N+](=O)[O-])c1 | inactive: -5.27% [at 95 µM] | – |
| NC(=O)Nc1ccc([As](=O)(O)O)cc1 | – | inactive |
| COP(=S)(Cl)OC | inactive: 0.347% [at 95 µM] | – |
| CN(N=O)C(=N)N[N+](=O)[O-] | inactive: -5.64% | – |
| CN(C(=O)Cc1cccc2occc12)[C@H]1CC[C@@]2(CCCO2)C[C@@H]1N1CCCC1 | inactive: -23.9% | – |
| CCCCC(CC)CO[P+](=O)OCC(CC)CCCC (centres undefined) | inactive: -3.41% | – |
| O=P(Cl)(Cl)c1ccccc1 | inactive: 4.35% | – |
| O=P(Cl)(Oc1ccccc1)Oc1ccccc1 | inactive: 0.552% | – |
| O=[As]c1ccccc1 (centres undefined) | – | active: 137 nM |
| O=[P+](Oc1ccccc1)Oc1ccccc1 | inactive: 18.2% | – |
| CC(C)OP(=S)(OC(C)C)SCCNS(=O)(=O)c1ccccc1 | inactive: -3.85% | – |
| CCOC(=O)Cl | inactive: 5.94% | – |

From PubChem BioAssay (Tox21)
